These are literature values, as cited in patent US10590413B2, “Chiral control” (WAVE LIFE SCIENCES LTD., priority 2012, dated 2020).

The test system of the series is NK activity. The conditions noted are these: cited from earlier work.

As to IL-2, the “LU/10^6, Human Cells” value (Expt. 1, human cells, None = 0.00) is reported as 15.82 LU/10^6. Moreover, the “LU/10^6, Mouse Cells” value (Expt. 1, mouse cells, None = 0.00) is reported as 16.68 LU/10^6. Besides, the “NK activity LU/10^5 Human Cells” value (human cells, Table 3 of U.S. Pat. No. 6,214,806) is reported as 15.82 LU/10^5. For the same substance, where the note is “human cells, Table 9 of U.S. Pat. No. 6,207,646”, the “NK activity LU/10^6 Human cells” value is reported as 15.82 LU/10^6. In addition, the “NK activity LU/10^5 Mouse Cells” value (mouse cells, Table 3 of U.S. Pat. No. 6,214,806) was 16.68 LU/10^5. In addition, under “mouse cells, Table 9 of U.S. Pat. No. 6,207,646”, the “NK activity LU/10^6 Mouse Cells” value is 16.68 LU/10^6.
